According to US20210315886A1, “IMIDAZOTETRAZINE COMPOUNDS” (The Board of Trustees of the University of Illinois, priority 2018, published 2021):

System: panel of human GBM cell lines
Assay: Anticancer activity against panel of human GBM cell lines
Type: cell-based
Conditions: U118MG and T98G MGMT-expressing GBM cells
Procedure: Anticancer activity of C8 substituted imidazotetrazines. With a suite of imidazotetrazines in hand, each compound was evaluated against a panel of human GBM cell lines (Table 1a, Table 1b).

Row | SMILES | activity relative to TMZ in MGMT-expressing cell lines
1 | Cn1nnc2c(Cl)ncn2c1=O [Compound 19, 8-chloro-3-methylimidazo[5,1-d][1,2,3,5]tetrazin-4(3H)-one] | significantly more potent
2 | Cc1ncn2c(=O)n(C)nnc12 [Compound 14, 3,8-dimethylimidazo[5,1-d][1,2,3,5]tetrazin-4(3H)-one] | significantly more potent
3 | Cn1nnc2c(-c3ccccc3)ncn2c1=O [Compound 23, 3-methyl-8-phenylimidazo[5,1-d][1,2,3,5]tetrazin-4(3H)-one] | significantly more potent
4 | Cc1cnc(-c2ncn3c(=O)n(C)nnc23)o1 [Compound 27, 3-methyl-8-(5-methyloxazol-2-yl)imidazo[5,1-d][1,2,3,5]tetrazin-4(3H)-one] | significantly more potent
